Assay: Water solubility / water insolubility by visual observation
Format: physicochemical
Conditions: 0.4 g sample in 4 g distilled water, 20° C., 30 minutes
Protocol: As used herein and in the claims, a water-soluble compound means a compound having a solubility in water of 10 g/100 g H2O or more at 20° C.
4 g of distilled water and 0.4 g of a sample were sufficiently stirred at 20° C., allowed to stand for 30 minutes, and then visually observed. When white turbidity and biphasic separation were not observed, it was judged to be water soluble. When white turbidity or biphasic separation was observed, it was judged to be water insoluble.

## glycerin dimethacrylate [GDMA]
  water solubility / water insolubility: WATER-SOLUBLE

## EO-modified bisphenol A dimethacrylate [BPE-1300N]
  water solubility / water insolubility: WATER-SOLUBLE

— US12502338B2, “Dental glass ionomer cement” (GC Corporation, priority 2020, dated 2025)
